In ChEMBL document CHEMBL5728058, “3-(carboxymethyl)-8-amino-2-oxo-1,3-diaza-spiro-[4.5]-decane derivatives” (2020):
pKi: −log10 of the molar value. Several values for one entry are separate records, joined by “and”; a condition that tells them apart may be missing. Identical values can stand only once.

The chains behind the UniProt entries cited, without tags or fusion partners. Where a name states a change or a piece, a line headed by the entry shows the natural chain unless it says otherwise.
UniProt P35372, whole entry, looked up: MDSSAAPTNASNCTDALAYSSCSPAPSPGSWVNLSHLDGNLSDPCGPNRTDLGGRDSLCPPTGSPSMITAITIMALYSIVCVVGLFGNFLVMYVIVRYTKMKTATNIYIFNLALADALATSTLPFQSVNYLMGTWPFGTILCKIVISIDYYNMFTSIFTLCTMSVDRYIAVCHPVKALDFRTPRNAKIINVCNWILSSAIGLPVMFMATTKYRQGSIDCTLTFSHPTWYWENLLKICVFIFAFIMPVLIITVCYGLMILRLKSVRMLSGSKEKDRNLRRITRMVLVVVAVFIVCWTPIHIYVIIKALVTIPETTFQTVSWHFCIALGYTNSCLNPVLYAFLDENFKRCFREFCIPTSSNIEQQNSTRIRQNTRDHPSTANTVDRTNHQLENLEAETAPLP
UniProt P41146: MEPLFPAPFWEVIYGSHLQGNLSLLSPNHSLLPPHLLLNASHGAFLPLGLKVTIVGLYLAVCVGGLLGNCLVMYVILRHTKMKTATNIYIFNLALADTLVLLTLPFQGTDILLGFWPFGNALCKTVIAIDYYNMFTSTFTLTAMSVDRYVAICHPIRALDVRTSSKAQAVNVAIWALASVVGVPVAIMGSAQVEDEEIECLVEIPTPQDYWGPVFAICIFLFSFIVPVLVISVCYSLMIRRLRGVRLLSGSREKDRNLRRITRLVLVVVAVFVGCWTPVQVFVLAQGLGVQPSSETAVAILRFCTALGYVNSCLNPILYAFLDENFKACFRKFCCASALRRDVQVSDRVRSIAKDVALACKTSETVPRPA

Columns and labels:
Mu-type opioid receptor = Mu-type opioid receptor (Homo sapiens, UniProt P35372); experiment: Human Mu-Opioid Peptide (hMOP) Receptor Binding Assay: The hMOP receptor binding assay was performed as homogeneous SPA-assay (scintillation proximity assay) using the assay buffer 50 mM TRIS-HCl (pH 7.4) supplemented with 0.052 mg/ml bovine serum albumin (Sigma-Aldrich Co., St. Louis, Mo.). The final assay volume (250 μl/well) included 1 nM of [N-allyl-2,3-3H]naloxone as ligand (PerkinElmer Life
Nociceptin receptor = Nociceptin receptor (Homo sapiens, UniProt P41146); experiment: Human Nociceptin/Orphanin FQ Peptide (hNOP) Receptor Binding Assay: The hNOP receptor binding assay was performed as homogeneous SPA-assay (scintillation proximity assay) using the assay buffer 50 mM TRIS-HCl, 10 mM MgCl2, 1 mM EDTA (pH 7.4). The final assay volume (250 μl/well) included 0.5 nM of [leucyl-3H]nociceptin as ligand (PerkinElmer Life Sciences, Inc. Boston, Mass., USA), and either test

## CCN(C)[C@]1(c2ccccc2)CC[C@]2(CC1)CN(CC(=O)NCCO)C(=O)N2CC1CCC1
Mu-type opioid receptor
  pKi: 6.18
Nociceptin receptor
  pKi: 7.41

## COC(=O)c1cccnc1NC(=O)CN1C[C@]2(CC[C@](c3ccccc3)(N(C)C)CC2)N(CC2CCC2)C1=O
Mu-type opioid receptor
  pKi: 7.26
Nociceptin receptor
  pKi: 8.12

## CN(C)[C@]1(c2ccccc2)CC[C@]2(CC1)CN(CC(=O)Nc1ccncc1)C(=O)N2CC1(O)CCC1
Mu-type opioid receptor
  pKi: 6.89
Nociceptin receptor
  pKi: 7.89

## CNC(=O)CN(C)C(=O)CN1C[C@]2(CC[C@](c3ccccc3)(N(C)C)CC2)N(CCCOC)C1=O
Mu-type opioid receptor
  pKi: 6.36
Nociceptin receptor
  pKi: 6.90

## CN(C)[C@]1(c2ccccc2)CC[C@]2(CC1)CN(CC(=O)NC(C)(C)C(N)=O)C(=O)N2CC1CCC1
Mu-type opioid receptor
  pKi: 6.95
Nociceptin receptor
  pKi: 8.04

## CCCN1C(=O)N(CC(=O)NCC(N)=O)C[C@]12CC[C@](c1ccccc1)(N(C)C)CC2
Mu-type opioid receptor
  pKi: 6.89
Nociceptin receptor
  pKi: 7.37

## CN(CCO)C(=O)CN1C[C@]2(CC[C@](c3ccccc3)(N(C)C)CC2)N(CC2CC2)C1=O
Mu-type opioid receptor
  pKi: 6.21
Nociceptin receptor
  pKi: 7.51

## CN(C)[C@]1(c2ccc(F)cc2)CC[C@]2(CC1)CN(CC(=O)NCCO)C(=O)N2CC1CCC1
Mu-type opioid receptor
  pKi: 7.07
Nociceptin receptor
  pKi: 7.96

## CN(C)[C@]1(c2ccccc2)CC[C@]2(CC1)CN(CC(=O)NCCS(C)(=O)=O)C(=O)N2CC1(O)CCC1
Mu-type opioid receptor
  pKi: 7.24
Nociceptin receptor
  pKi: 7.85

## COCCOCCOCCOCCOCCNC(=O)CN1C[C@]2(CC[C@](c3ccccc3)(N(C)C)CC2)N(CC2CCC2)C1=O
Mu-type opioid receptor
  pKi: 6.90
Nociceptin receptor
  pKi: 7.66

## COCCN1C(=O)N(CC(=O)Nc2ccncn2)C[C@]12CC[C@](c1ccccc1)(N(C)C)CC2
Mu-type opioid receptor
  pKi: 6.07
Nociceptin receptor
  pKi: 6.96

## CN(C)[C@]1(c2ccccc2)CC[C@@]2(CC1)CN(CC(N)=O)C(=O)N2
Mu-type opioid receptor
  pKi: 5.74
Nociceptin receptor
  pKi: 6.33

## CN(C)[C@]1(c2ccccc2)CC[C@@]2(CC1)NC(=O)N(CC(=O)Nc1ccccc1)C2=O
Mu-type opioid receptor
  pKi: 5.79
Nociceptin receptor
  pKi: 6.71

## COCCCN1C(=O)N(CC(=O)NCCO)C[C@]12CC[C@](c1ccccc1)(N(C)C)CC2
Mu-type opioid receptor
  pKi: 6.64
Nociceptin receptor
  pKi: 7.10

## COc1cc(NC(=O)CN2C[C@]3(CC[C@](c4ccccc4)(N(C)C)CC3)N(CC3CCC3)C2=O)ncn1
Mu-type opioid receptor
  pKi: 6.91
Nociceptin receptor
  pKi: 7.96

## CN(CC(N)=O)C(=O)CN1C[C@]2(CC[C@](c3ccccc3)(N(C)C)CC2)N(CC2COC2)C1=O
Mu-type opioid receptor
  pKi: 5.54
Nociceptin receptor
  pKi: 6.77

## CN(C)[C@]1(c2ccccc2)CC[C@]2(CC1)CN(CC(=O)NCCO)C(=O)N2CC1CC1
Mu-type opioid receptor
  pKi: 6.84
Nociceptin receptor
  pKi: 7.89

## COCCCN1C(=O)N(CC(=O)Nc2ccnnc2)C[C@]12CC[C@](c1ccccc1)(N(C)C)CC2
Mu-type opioid receptor
  pKi: 6.89
Nociceptin receptor
  pKi: 7.37

## CNC(=O)CN1C[C@]2(CC[C@@](NC)(c3ccccc3)CC2)N(CC2CCC2)C1=O
Mu-type opioid receptor
  pKi: 6.91 and 6.92
Nociceptin receptor
  pKi: 7.88 and 7.96

## CN(C)C(=O)CN1C(=O)N(CC(=O)NCCO)C[C@]12CC[C@](c1ccccc1)(N(C)C)CC2
Mu-type opioid receptor
  pKi: 6.29
Nociceptin receptor
  pKi: 6.67

## CN(C)[C@]1(c2ccccc2)CC[C@]2(CC1)CN(CC(=O)NCCO)C(=O)N2CC1(O)CCC1
Mu-type opioid receptor
  pKi: 6.92
Nociceptin receptor
  pKi: 7.41

## CN(C)[C@]1(c2ccccc2)CC[C@@]2(CC1)CN(CC(N)=O)C(=O)N2CC1CC1
Mu-type opioid receptor
  pKi: 6.65
Nociceptin receptor
  pKi: 6.73

## CNC(=O)CN(C)C(=O)CN1C[C@]2(CC[C@](c3ccccc3)(N(C)C)CC2)N(CC2CCC2)C1=O
Mu-type opioid receptor
  pKi: 6.94 and 6.74
Nociceptin receptor
  pKi: 8.20 and 7.77

## CNC(=O)c1ccnc(NC(=O)CN2C[C@]3(CC[C@](c4ccccc4)(N(C)C)CC3)N(CC3CCC3)C2=O)c1
Mu-type opioid receptor
  pKi: 7.60
Nociceptin receptor
  pKi: 8.46

## CN(C)[C@]1(c2ccccc2)CC[C@]2(CC1)CN(CC(=O)NC1CCS(=O)(=O)CC1)C(=O)N2CC1(O)CCC1
Mu-type opioid receptor
  pKi: 6.71
Nociceptin receptor
  pKi: 7.89

## Cc1cc(NC(=O)CN2C[C@]3(CC[C@](c4ccccc4)(N(C)C)CC3)N(CC3CCC3)C2=O)ccn1
Mu-type opioid receptor
  pKi: 7.08
Nociceptin receptor
  pKi: 8.48

## COCCNC(=O)CN1C[C@]2(CC[C@](c3ccccc3)(N(C)C)CC2)N(CC2(O)CCC2)C1=O
Mu-type opioid receptor
  pKi: 7.18
Nociceptin receptor
  pKi: 7.57

## CN(C)[C@]1(c2ccccc2)CC[C@]2(CC1)CN(CC(=O)NCCC(=O)N1CCOCC1)C(=O)N2CC1CCC1
Mu-type opioid receptor
  pKi: 6.77
Nociceptin receptor
  pKi: 8.34

## CCCN1C(=O)N(CC(=O)NC)C[C@]12CC[C@](c1ccccc1)(N(C)C)CC2
Mu-type opioid receptor
  pKi: 7.73
Nociceptin receptor
  pKi: 7.40

## CN[C@]1(c2ccccc2)CC[C@]2(CC1)CN(CC(=O)NCCOCCOCCOCCOCCOCCOCCOC)C(=O)N2CC1CCC1
Mu-type opioid receptor
  pKi: 5.92
Nociceptin receptor
  pKi: 6.58

## CN(C)C(=O)CCNC(=O)CN1C[C@]2(CC[C@](c3ccccc3)(N(C)C)CC2)N(CC2CCC2)C1=O
Mu-type opioid receptor
  pKi: 7.50
Nociceptin receptor
  pKi: 8.12

## CN(C)[C@]1(c2ccccc2)CC[C@]2(CC1)CN(CC(=O)NCC(C)(C)O)C(=O)N2CC1CCC1
Mu-type opioid receptor
  pKi: 7.23
Nociceptin receptor
  pKi: 8.28

## CN(CC(N)=O)C(=O)CN1C[C@]2(CC[C@](c3ccc(F)cc3)(N(C)C)CC2)N(CC2CCC2)C1=O
Mu-type opioid receptor
  pKi: 6.74
Nociceptin receptor
  pKi: 7.82

## CCCN1C(=O)N(CC(=O)N2CCS(=O)(=O)CC2)C[C@]12CC[C@@](NC)(c1ccccc1)CC2
Mu-type opioid receptor
  pKi: 5.99
Nociceptin receptor
  pKi: 6.52

## COC(=O)c1ccnc(NC(=O)CN2C[C@]3(CC[C@](c4ccccc4)(N(C)C)CC3)N(CC3CCC3)C2=O)c1
Mu-type opioid receptor
  pKi: 7.16
Nociceptin receptor
  pKi: 8.31

## CCCN1C(=O)N(CC(=O)N2CCS(=O)(=O)CC2)C[C@]12CC[C@](c1ccccc1)(N(C)C)CC2
Mu-type opioid receptor
  pKi: 7.01
Nociceptin receptor
  pKi: 7.66

## CN(C)[C@]1(c2ccccc2)CC[C@]2(CC1)CN(CC(N)=O)C(=O)N2CC1CC1
Mu-type opioid receptor
  pKi: 7.02
Nociceptin receptor
  pKi: 7.92

## COCCCN1C(=O)N(CC(=O)Nc2cc(OC)ccn2)C[C@]12CC[C@](c1ccccc1)(N(C)C)CC2
Mu-type opioid receptor
  pKi: 6.97
Nociceptin receptor
  pKi: 7.72

## CNC(=O)CN1C[C@]2(CC[C@@](c3ccccc3)(N(C)C)CC2)N(CC2CC2)C1=O
Mu-type opioid receptor
  pKi: 7.13
Nociceptin receptor
  pKi: 6.64

## CN[C@]1(c2ccccc2)CC[C@]2(CC1)CN(CC(=O)N1C[C@@H](O)[C@@H](O)C1)C(=O)N2CC1CCC1
Mu-type opioid receptor
  pKi: 6.92
Nociceptin receptor
  pKi: 7.52

## COCCCN1C(=O)N(CC(=O)Nc2cncnc2)C[C@]12CC[C@](c1ccccc1)(N(C)C)CC2
Mu-type opioid receptor
  pKi: 6.91
Nociceptin receptor
  pKi: 7.95

## CN[C@]1(c2ccccc2)CC[C@]2(CC1)CN(CC(=O)NC(C)(C)C(N)=O)C(=O)N2CC1CCC1
Mu-type opioid receptor
  pKi: 6.80
Nociceptin receptor
  pKi: 7.16

## CN(C)[C@]1(c2ccccc2)CC[C@]2(CC1)CN(CC(=O)Nc1cc([S+](C)[O-])ccn1)C(=O)N2CC1CCC1 (stereo not given in full)
Mu-type opioid receptor
  pKi: 7.26
Nociceptin receptor
  pKi: 8.31

## CC(C)CN1C(=O)N(CC(=O)NCC(N)=O)C[C@]12CC[C@](c1ccccc1)(N(C)C)CC2
Mu-type opioid receptor
  pKi: 6.84
Nociceptin receptor
  pKi: 7.90

## COCCN1C(=O)N(CC(=O)NCC(N)=O)C[C@]12CC[C@](c1ccccc1)(N(C)C)CC2
Mu-type opioid receptor
  pKi: 6.32
Nociceptin receptor
  pKi: 6.91
